Assays:
SMARCA2 = SMARCA2 (Homo sapiens, UniProt P51531); assay: HiBit assay in engineered HT1080 CRISPR knock-in cell, 6 hrs (B series), SMARCA2; conditions: HT1080 CRISPR knock-in cells, 6 hrs incubation
SMARCA4 = SMARCA4 (Homo sapiens, UniProt P51532); assay: HiBit assay in engineered HT1080 CRISPR knock-in cell, 6 hrs (B series), SMARCA4; type: cell-based; conditions: HT1080 CRISPR knock-in cells, 6 hrs incubation

By UniProt entry, the sequences of proteins in these tests, tags left out.
UniProt P51531, whole entry: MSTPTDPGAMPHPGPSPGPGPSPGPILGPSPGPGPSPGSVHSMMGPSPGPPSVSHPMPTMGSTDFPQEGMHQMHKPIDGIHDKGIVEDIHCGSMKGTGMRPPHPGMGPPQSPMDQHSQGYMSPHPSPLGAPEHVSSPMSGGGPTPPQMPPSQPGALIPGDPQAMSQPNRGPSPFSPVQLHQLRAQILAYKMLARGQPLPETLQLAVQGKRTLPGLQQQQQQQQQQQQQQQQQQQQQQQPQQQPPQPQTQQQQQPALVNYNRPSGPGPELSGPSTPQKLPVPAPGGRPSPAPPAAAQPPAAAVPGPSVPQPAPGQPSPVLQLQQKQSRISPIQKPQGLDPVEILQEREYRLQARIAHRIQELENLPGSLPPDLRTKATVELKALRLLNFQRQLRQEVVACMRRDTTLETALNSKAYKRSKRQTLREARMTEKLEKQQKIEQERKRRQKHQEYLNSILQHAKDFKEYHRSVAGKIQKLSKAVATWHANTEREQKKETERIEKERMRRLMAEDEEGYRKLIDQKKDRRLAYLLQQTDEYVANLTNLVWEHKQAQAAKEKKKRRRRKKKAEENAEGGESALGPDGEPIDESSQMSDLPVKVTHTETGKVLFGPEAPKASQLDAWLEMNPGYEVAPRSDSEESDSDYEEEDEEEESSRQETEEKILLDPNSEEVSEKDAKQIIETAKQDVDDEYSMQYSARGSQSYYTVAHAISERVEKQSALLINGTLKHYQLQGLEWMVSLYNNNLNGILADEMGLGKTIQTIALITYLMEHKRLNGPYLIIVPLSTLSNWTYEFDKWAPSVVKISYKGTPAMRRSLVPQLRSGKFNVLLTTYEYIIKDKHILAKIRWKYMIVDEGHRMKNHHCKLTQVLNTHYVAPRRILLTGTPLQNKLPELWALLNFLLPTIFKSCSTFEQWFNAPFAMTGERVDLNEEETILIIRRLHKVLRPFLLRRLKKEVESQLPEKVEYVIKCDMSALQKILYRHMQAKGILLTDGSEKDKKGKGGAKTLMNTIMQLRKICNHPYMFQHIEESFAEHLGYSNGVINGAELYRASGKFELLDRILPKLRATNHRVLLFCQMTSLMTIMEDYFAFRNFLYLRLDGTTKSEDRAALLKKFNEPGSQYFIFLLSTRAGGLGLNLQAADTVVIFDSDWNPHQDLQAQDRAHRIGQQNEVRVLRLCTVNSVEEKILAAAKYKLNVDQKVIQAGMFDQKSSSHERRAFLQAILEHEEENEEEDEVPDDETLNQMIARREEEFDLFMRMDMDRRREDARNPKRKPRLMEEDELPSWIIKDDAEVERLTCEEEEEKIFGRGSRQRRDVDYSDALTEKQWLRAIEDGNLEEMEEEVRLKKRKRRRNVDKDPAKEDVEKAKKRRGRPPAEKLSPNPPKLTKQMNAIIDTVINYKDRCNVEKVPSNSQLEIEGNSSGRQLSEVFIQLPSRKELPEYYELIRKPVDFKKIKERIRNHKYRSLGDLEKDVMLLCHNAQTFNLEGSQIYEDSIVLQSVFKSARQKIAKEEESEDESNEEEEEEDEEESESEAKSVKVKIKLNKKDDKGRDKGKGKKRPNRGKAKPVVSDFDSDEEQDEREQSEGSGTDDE
UniProt P51532, whole entry: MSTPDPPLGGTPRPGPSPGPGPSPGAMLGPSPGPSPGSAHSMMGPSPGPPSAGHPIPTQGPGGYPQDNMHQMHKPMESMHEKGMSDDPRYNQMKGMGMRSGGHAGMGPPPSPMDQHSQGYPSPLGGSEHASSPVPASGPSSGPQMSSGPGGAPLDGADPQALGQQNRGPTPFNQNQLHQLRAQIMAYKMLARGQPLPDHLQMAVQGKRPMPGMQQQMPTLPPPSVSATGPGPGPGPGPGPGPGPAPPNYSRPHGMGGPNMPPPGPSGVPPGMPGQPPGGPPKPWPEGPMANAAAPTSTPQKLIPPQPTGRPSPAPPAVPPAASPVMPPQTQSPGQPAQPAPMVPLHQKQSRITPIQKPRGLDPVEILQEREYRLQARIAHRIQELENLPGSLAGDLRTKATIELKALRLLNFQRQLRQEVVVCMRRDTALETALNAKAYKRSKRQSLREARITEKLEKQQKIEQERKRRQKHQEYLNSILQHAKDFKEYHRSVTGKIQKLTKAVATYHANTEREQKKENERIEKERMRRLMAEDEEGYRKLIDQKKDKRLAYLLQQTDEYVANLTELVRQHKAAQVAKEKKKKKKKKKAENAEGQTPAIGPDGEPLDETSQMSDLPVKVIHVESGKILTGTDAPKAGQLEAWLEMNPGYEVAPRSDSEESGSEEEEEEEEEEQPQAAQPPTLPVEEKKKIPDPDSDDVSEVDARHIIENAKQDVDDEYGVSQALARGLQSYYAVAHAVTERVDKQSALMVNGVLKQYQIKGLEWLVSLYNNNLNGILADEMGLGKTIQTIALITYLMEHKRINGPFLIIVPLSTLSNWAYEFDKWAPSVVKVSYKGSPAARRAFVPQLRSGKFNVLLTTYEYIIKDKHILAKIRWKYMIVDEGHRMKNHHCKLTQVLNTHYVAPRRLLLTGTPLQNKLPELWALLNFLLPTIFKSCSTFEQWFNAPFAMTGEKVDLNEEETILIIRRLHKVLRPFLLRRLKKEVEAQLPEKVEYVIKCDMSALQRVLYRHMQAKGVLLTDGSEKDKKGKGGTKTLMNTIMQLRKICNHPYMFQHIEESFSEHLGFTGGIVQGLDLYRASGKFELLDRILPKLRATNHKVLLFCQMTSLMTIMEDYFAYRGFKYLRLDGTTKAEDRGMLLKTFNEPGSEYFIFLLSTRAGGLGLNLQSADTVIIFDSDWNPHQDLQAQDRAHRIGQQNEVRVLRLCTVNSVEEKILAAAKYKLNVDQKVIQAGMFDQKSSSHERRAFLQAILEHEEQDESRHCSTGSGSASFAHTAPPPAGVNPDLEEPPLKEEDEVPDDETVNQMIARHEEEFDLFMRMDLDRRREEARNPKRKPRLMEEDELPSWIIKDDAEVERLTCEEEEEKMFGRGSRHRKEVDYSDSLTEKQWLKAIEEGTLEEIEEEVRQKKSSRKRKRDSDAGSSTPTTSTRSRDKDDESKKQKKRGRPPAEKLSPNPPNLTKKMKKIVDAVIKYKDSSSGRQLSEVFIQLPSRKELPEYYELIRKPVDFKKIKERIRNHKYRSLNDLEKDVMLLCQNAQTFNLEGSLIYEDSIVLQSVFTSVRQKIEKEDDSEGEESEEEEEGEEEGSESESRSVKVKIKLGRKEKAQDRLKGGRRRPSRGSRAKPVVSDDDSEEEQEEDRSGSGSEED

## Cc1ncsc1-c1ccc([C@H](C)NC(=O)[C@@H]2C[C@@H](O)CN2C(=O)[C@@H](c2cc(OC3CCC(N4CCC(c5ccc6c(c5)-n5c(nc(=O)c7c(Cl)cccc75)C6(C)C)CC4)CC3)no2)C(C)C)cc1 (stereo partly drawn) [Compound B81, (2S,4R)-1-((R)-2-(3-((4-(4-(4-chloro-7,7-dimethyl-5-oxo-5,7-dihydroindolo[1,2-a]quinazolin-10-yl)piperidin-1-yl)cyclohexyl)oxy)isoxazol-5-yl)-3-methylbutanoyl)-4-hydroxy-N-((S)-1-(4-(4-methylthiazol-5-yl)phenyl)ethyl)pyrrolidine-2-carboxamide]
SMARCA2
  SMARC A2 HT1080 HiBit Dmax (%): A (A (>90% degradation))
SMARCA2; read-out: SMARC A2 HT1080 HiBit DC50
  DC50: < 100 nM
SMARCA4
  SMARC A4 HT1080 HiBit Dmax(%): A (A (>90% degradation))
SMARCA4; read-out: SMARC A4 HT1080 HiBit DC50
  DC50: < 100 nM

Reference: patent US20260092071A1, “COMPOUNDS AND COMPOSITIONS AS SMARCA2/4 DEGRADERS AND USES THEREOF” (REGENTS OF THE UNIVERSITY OF MICHIGAN, priority 2022, published 2026)
